Drawing on US9107852B2, “Uses of agonists of delta opioid receptor in cosmetic and dermocosmetic field” (Induchem Holding AG, priority 2012, dated 2015), this text covers EC50 for one substance.

Sequences of proteins named here, by UniProt entry; tags and fusion partners are left off.
UniProt P32300, whole entry: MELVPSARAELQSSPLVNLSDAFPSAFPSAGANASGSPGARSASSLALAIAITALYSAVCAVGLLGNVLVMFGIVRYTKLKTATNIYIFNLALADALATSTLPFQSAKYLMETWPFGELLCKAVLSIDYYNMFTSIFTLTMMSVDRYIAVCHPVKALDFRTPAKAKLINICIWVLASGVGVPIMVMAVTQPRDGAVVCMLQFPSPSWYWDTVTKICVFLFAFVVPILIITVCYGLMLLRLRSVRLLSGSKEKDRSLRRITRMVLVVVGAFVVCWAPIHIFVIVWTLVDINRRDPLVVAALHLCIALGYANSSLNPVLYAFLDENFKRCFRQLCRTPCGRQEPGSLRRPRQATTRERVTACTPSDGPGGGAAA

pEC50: −log10 of the molar value.

In general, pEC50 refers to the EC50 on a negative log10 scale, so that one unit is a factor of ten. The low end stands for a large EC50, the high end for a small EC50.

In this experiment the target is T1, delta2 opioid receptor (Mus musculus, UniProt P32300).
T1 construct: host or cells: unnamed cells 'bearing the delta2 opioid receptor'
The experiment is described as follows: Agonist effect at the delta2 opioid receptor (DOP), cell impedance. It is filed as cell-based. As to conditions: cells bearing delta2 opioid receptor. How it is done: Frozen spinach leaves were thawed and disrupted in fine particles a blender. This juice was further treated with ultrasounds to disrupt cells and proteins were recovered by acidic precipitation. These proteins were then digested by several enzymes, including pepsin and papain. The hydrolysate was purified (ultrafiltration), fractionated and stored before testing. Meanwhile, synthetic peptides were ordered from a manufacturer. The peptides and the hydrolysates were tested on cells bearing the delta2 opioid receptor and cell impedance was measured to evaluate the binding activity of the tested compounds (Law and Loh, 1993).
The results were expressed as a percent of control specific agonist response (DPDPE (SEQ ID No 27) was used for this purpose) ((measured specific response/control specific agonist response)×100) obtained in the presence of the test compounds.
The EC50 values (concentration producing a half-maximal specific response) and IC50 values (concentration causing a half-maximal inhibition of the control specific agonist response) were determined by non-linear regression analysis of the concentration-response curves generated with mean replicate values using Hill equation curve fitting (Y=D+[(A D)/(1+(C/C50)nH)], where Y=specific response, D=minimum specific response, A=maximum specific response, C=compound concentration, and C50=EC50 or IC50, and nH=slope factor).

For the substance “D-Penicillamine(2,5)-enkephalin [DPDPE, reference compound]”, the pEC50 is 9.23.
